The structures appear in SMILES notation.

Results on 1 compound are retold here after ChEMBL document CHEMBL5380778, “Structure-Directed Discovery of Potent Soluble Epoxide Hydrolase Inhibitors for the Treatment of Inflammatory Diseases” (J Med Chem, 2023).

In the experiment the test system is Mus musculus. In words: Anti-inflammatory activity in L-arginine-induced acute pancreatitis kunming mouse model assessed as reversal of L-arginine induced pancreatic injury by measuring total score at 5 mg/kg, ip pre-treated with L-arginine for 14 hrs followed by compound treatment and measured after 10 hrs by histologic scoring analysis (reference value: 6.25 +/- 0.96). In kind it is functional.

In the case of `Cc1ccc(-c2cc(C(F)(F)F)nn2-c2ccc(S(N)(=O)=O)cc2)cc1` [CELECOXIB], the Activity is 3.75.
